# Experimental data published in US8569472B2, “Efficient cell culture system for hepatitis C virus genotype 6A” (priority 2007, dated 2013).
# Test system: JFH1-based recombinants of genotypes 1a, 1b, 2a, 2b, and 6a
# Type: cell-based, hepatitis C virus
# Conditions: 500 IU/mL interferon-α2b, 20 μM ribavirin or 50 μM amantadine
substance,measurement,setting,value
interferon-α2b,antiviral effect of treatment (infected cells and supernatant HCV RNA titers),,antiviral effect
same,decrease in supernatant HCV RNA titers,"72 hrs, Huh7.5 cultures infected with genotype 1a/1b, 2a/2b and 6a recombinants",~2 log
